Results: patent US20240052028A1, “ENHANCEMENT OF ANTI-TUMOR PHAGOCYTOSIS” (The Board of Trustees of the Leland Stanford Junior …, priority 2020, published 2024)

Columns and labels:
[1] = test system: OVCAR8 cells; assay: Phagocytosis assay, uptake of OVCAR8 cells by J774 macrophages with anti-EGFR/cetuximab; format: cell-based, mouse; settings: cells without APMAP deficiency, J774 macrophages (FIG. 3B)
Method: (§1) Time-lapse microscopy assay for phagocytosis J774 cells were lifted by scraping, counted, and plated in 24 well tissue culture plates at a density of 100,000 cells per well in 0.5 ml media 48 h prior to the start of the experiment. At 24 h after plating, media was aspirated and replaced with fresh media containing 10 ng ml^−1 lipopolysaccharide (LPS) (Sigma). On the day of the experiment, target cells that had been transduced with sgRNAs, co-expressed with GFP and PuroR, and selected with puromycin as described above, were lifted, pelleted, and counted. […] Total red intensity for each well, averaged over 16 images per well, was calculated after applying a threshold for red intensity that excluded most or all cells at the first time point using top-hat background subtraction. Reported values represent the mean total red fluorescence intensity at each timepoint, minus the total red fluorescence at the initial timepoint (to remove signal from occasional autofluorescent debris), normalized to the initial total green fluorescence signal (to account for small variations in target cell density), of duplicate, triplicate, or quadruplicate wells, as indicated in the legend. […]

[2] = test system: NCI-H23 cells; assay: Phagocytosis assay, uptake of NCI-H23 cells by J774 macrophages with anti-EGFR/cetuximab; format: cell-based, mouse; settings: cells without APMAP deficiency, J774 macrophages (FIG. 3B)
Method: as §1

cetuximab
phagocytosis of OVCAR8 cells in the presence of cetuximab [1]: not otherwise detectably phagocytosed
phagocytosis of NCI-H23 cells in the presence of cetuximab [2]: not otherwise detectably phagocytosed
